Tests used:
[1] = system: houseflies; test: Insecticidal activity on houseflies, production test in home and production premises; conditions: after 72 hrs
[2] = Solubility in solvents; conditions: qualitative; water and organic solvents
[3] = system: houseflies; test: Insecticidal activity on houseflies, laboratory test in gauze boxes; conditions: for Death of flies, % after 48 hours / Death of flies, % after 72 hours: concentration 2 % by mass

## COP(=O)(NC(CCl)C(O)c1ccc([N+](=O)[O-])cc1)OC (stereo not shown) [Example 11, 1-para-nitrophenyl-1-chloro-3-propanolamidophosphoric acid dimethyl ether]
[1]; concentration 1 %, listed as Example 18, 4320 min
  Death of flies, % Tests production: 66%
[1]; concentration 1 %, listed as Example 22, 4320 min
  Death of flies, % Tests production: 73%

## COP(=O)(O)NC(CCl)C(O)c1ccc([N+](=O)[O-])cc1 (stereo not shown)
[2]
  solubility: soluble in water, alcohols and acetone
[3]
  Death of flies, % after 48 hours: 36.4%
  Death of flies, % after 72 hours: 70%

## O=[N+]([O-])c1ccc(C(O)C(CCl)NP(=O)(O)O)cc1 (stereo not shown) [Example 2, 1-para-nitrophenyl-1--chloro-3-propanolamidophosphoric acid]
[3]; concentration 2 %
  Death of flies, % Tests laboratory: 100%
[1]; concentration 2 %
  Death of flies, % Tests production: 100%

## O=[N+]([O-])c1ccc(C(O)C(CO)NP(=O)(O)O)cc1 (stereo not shown) [Example 1, 1-para-netrophenyl-1,3--propanediolamidophosphoric acid]
[3]; concentration 2 %
  Death of flies, % Tests laboratory: 100%
[1]; concentration 2 %
  Death of flies, % Tests production: 100%

## CCOP(=O)(NC(CCl)C(Cl)c1ccc([N+](=O)[O-])cc1)OCC (stereo not shown) [Example 14, 1-para-nitrophenyl-1,3--dichloropropanamidophosphoric acid diethyl ether]
[3]; concentration 1 %
  Death of flies, % Tests laboratory: 100%
[1]; concentration 1 %
  Death of flies, % Tests production: 100%

## COP(=O)(NC(CCl)C(Cl)c1ccc([N+](=O)[O-])cc1)OC (stereo not shown) [Example 12, 1-para-nitrophenyl--1,3-dichloropropanamidophosphoric acid dimethyl ether]
[1]; concentration 1 %
  Death of flies, % Tests production: 70%

## O=[N+]([O-])c1ccc(C(Cl)C(CCl)NP(=O)(O)O)cc1 (stereo not shown) [Example 3]
[3]; concentration 2 %
  Death of flies, % Tests laboratory: 100%
[1]; concentration 2 %
  Death of flies, % Tests production: 100%

## COP(=O)(O)NC(CO)C(O)c1ccc([N+](=O)[O-])cc1 (stereo not shown)
[2]
  solubility: soluble in water, alcohols, acetone
[3]
  Death of flies, % after 48 hours: 46%
  Death of flies, % after 72 hours: 94.2%

## CCOP(=O)(NC(CCl)C(O)c1ccc([N+](=O)[O-])cc1)OCC (stereo not shown) [Example 13, 1-para-nitrophenyl-1-chloro-3-propanolamidophosphoric acid diethyl ether]
[1]; concentration 1 %
  Death of flies, % Tests production: 98%

## COP(=O)(OC)C(O)C(Cl)(Cl)Cl (stereo not shown) [Known insecticidal preparation, O,O-Dimethyl-(1-hydroxy-2,2,2-tri-chloroethyl)-phosphonate]
[1]; concentration 1 %
  Death of flies, % Tests production: 89%

## COP(=O)(O)NC(CCl)C(Cl)c1ccc([N+](=O)[O-])cc1 (stereo not shown)
[2]
  solubility: soluble in water, alcohols and acetone
[3]
  Death of flies, % after 48 hours: 54%
  Death of flies, % after 72 hours: 89.1%

From patent publication EP0404945A1 (priority 1989, dated 1990)
